We go through 24 molecules from PubChem BioAssay AID2097 (Broad Institute, 2009).

The chains behind the UniProt entries cited, without tags or fusion partners.
UniProt P49841, whole entry: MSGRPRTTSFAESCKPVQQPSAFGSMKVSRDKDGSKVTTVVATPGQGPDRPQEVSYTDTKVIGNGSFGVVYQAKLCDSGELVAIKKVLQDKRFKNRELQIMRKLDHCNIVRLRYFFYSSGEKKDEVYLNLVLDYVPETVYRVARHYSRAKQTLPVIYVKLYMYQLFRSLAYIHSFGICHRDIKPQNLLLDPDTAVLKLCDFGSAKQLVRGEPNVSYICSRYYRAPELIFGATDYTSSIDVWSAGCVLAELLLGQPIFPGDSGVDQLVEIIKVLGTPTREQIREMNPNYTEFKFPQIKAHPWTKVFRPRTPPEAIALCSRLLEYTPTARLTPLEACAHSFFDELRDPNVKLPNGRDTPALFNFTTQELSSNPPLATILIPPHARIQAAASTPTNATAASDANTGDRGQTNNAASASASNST

The list shows a part of the results, in another mix than the full data. Some results for these compounds are left out of this collection, so the calls shown say nothing about other tests. The source made the active and inactive calls.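 How the source made its calls: active means more than half of replicate wells score below -50%, meaning over 50% inhibition versus plate controls; inconclusive means some replicates but at most half score below -50%; inactive means no replicate scores below -50%.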

The target in the experiment is Glycogen synthase kinase-3 beta (Homo sapiens) (UniProt P49841). Briefly: blockers of GSK3B enzyme activity – biochemical, cell-free homogeneous, HTS, primary screen (AID 2097).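 Further: 0% = median DMSO wells and -100% = median GW8510 positive control wells.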 Conditions: GST-GSK3beta kinase, ADP-Glo luminescence, 60 min; at 10 µM; stronger effect = lower value.
In the case of `O=C(OC1CN2CCC1CC2)C(CO)(c1ccccc1)c1ccccc1` (centres undefined), the activity score (negative = inhibition) is inactive: -0.445%.

Turning to `CN(C)c1cccc(C(=O)NCC2(N(C)C)CCCCC2)c1`, the activity score (negative = inhibition) was inactive: -0.512%.

As for `CC(C)Oc1ccc(C(=O)NCC2(N(C)C)CCCCC2)cc1`, the activity score (negative = inhibition) is inactive: -2.56%.

With `COc1ccc(Br)c(C(=O)NCC2(N3CCCCC3)CCCCC2)c1`, the activity score (negative = inhibition) was inactive: -0.968%.

On to `COc1cc(C(=O)NCC2(N(C)C)CCCCC2)c([N+](=O)[O-])cc1OC`, for which the activity score (negative = inhibition) was inactive: 1.5%. Turning to `CN(C)C1(CNC(=O)c2ccc(Br)cc2)CCCCC1`, the activity score (negative = inhibition) was inactive: 2.31%. For `O=C(NCC1(N2CCCCC2)CCCCC1)c1cccc(Cl)c1`, the activity score (negative = inhibition) is inactive: 3.73%. The same measure for `COc1ccc(Cl)cc1C(=O)NCC1(N(C)C)CCCCC1`: inactive: 4.22%; for `COc1cccc(C(=O)NCC2(N3CCCCC3)CCCCC2)c1`: inactive: 1.82%. Regarding `CN(C)c1ccc(C(=O)NCC2(N(C)C)CCCCC2)cc1`, the activity score (negative = inhibition) was inactive: 2.52%. As to `CN(C)C1CCCC1OC(=O)C(O)(c1ccccc1)c1ccccc1` (centres undefined), the activity score (negative = inhibition) was inactive: 1.03%.

With `Cc1ccccc1C(=O)NCC1(N2CCCCC2)CCCCC1`, the activity score (negative = inhibition) was inactive: 0.468%. `O=C(NCC1(N2CCCCC2)CCCCC1)c1cccc(Br)c1`: the activity score (negative = inhibition) was inactive: -0.891%. The same measure for `CCN1CCCC(OC(=O)C2(O)c3ccccc3C=Cc3ccccc32)C1` (centres undefined): inactive: 2.19%; for `Cc1cc(C(=O)NCC2(N3CCCCC3)CCCCC2)ccc1[N+](=O)[O-]`: inactive: -3.04%. For the molecule `COc1ccc(C(=O)NCC2(N(C)C)CCCCC2)cc1`, the activity score (negative = inhibition) was inactive: 0.0603%. Consider `O=C(NCC1(N2CCCCC2)CCCCC1)c1cc(F)c(F)cc1Cl`, for which the activity score (negative = inhibition) is inactive: 2.11%. For `C=CCN1CCN(CCOC(=O)C(O)(c2ccccc2)c2ccccc2)CC1`, the activity score (negative = inhibition) is inactive: -1.4%. The same measure for `CN1[C@@H]2CC[C@H]1CC(OC(=O)C(O)(c1ccccc1)c1ccccc1)C2` (some centres undefined): inactive: -0.686%. The same measure for `O=C(NCC1(N2CCCCC2)CCCCC1)c1cc([N+](=O)[O-])ccc1Cl`: inactive: 3.31%; for `Cc1ccc(C(=O)NCC2(N3CCCCC3)CCCCC2)cc1`: inactive: -3.27%; for `CC(C)N1C(=O)CC2(CCN(CCOC(=O)C(O)(c3ccccc3)c3ccccc3)CC2)C1=O`: inactive: 1.05%.

For the molecule `COc1cc(SC)ccc1C(=O)NCC1(N(C)C)CCCCC1`, the activity score (negative = inhibition) is inactive: -1.99%.

In the case of `CCN(CC)CC(C)C(C)OC(=O)C(O)(c1ccccc1)c1ccccc1` (centres undefined), the activity score (negative = inhibition) is inactive: 0.0095%.
